Tested on: type II diabetic mice (db/db)
Assay: combination of MNH05119 and metformin in type II diabetic model mice (Example 7)
Type: in vivo, BKS-Leprem2Cd479/Gpt (db/db) mice
Details: Day27, MNH05119 2×10^10 CFU/mouse twice daily, metformin 250 mg/kg once daily, oral gavage

CN(C)C(=N)N=C(N)N [metformin]
reduction of AUC-OGTT compared to negative control group: 19.2%

Reference: patent US20260008995A1, “ISOLATED CHRISTENSENELLA, COMPOSITIONS COMPRISING THE SAME, AND USES THEREOF” (MOON (GUANGZHOU) BIOTECH CO., LTD., priority 2023, published 2026)
